The Ki is the dissociation constant of the complex between target and ligand, obtained from inhibition or displacement.

Sequences of proteins named here, by UniProt entry; tags and fusion partners are left off.
UniProt P08908, whole entry: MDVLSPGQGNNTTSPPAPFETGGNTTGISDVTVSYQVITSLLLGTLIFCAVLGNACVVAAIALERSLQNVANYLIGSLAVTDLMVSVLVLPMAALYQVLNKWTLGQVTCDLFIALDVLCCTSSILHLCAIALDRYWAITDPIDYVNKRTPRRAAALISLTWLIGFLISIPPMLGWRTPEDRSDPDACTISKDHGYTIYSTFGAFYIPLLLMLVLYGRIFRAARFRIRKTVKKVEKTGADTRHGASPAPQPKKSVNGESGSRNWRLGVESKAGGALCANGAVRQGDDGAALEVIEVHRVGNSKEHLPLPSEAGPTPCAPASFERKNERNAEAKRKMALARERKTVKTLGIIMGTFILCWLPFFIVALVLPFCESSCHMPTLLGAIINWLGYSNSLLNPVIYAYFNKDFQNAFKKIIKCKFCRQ
UniProt P34969, whole entry: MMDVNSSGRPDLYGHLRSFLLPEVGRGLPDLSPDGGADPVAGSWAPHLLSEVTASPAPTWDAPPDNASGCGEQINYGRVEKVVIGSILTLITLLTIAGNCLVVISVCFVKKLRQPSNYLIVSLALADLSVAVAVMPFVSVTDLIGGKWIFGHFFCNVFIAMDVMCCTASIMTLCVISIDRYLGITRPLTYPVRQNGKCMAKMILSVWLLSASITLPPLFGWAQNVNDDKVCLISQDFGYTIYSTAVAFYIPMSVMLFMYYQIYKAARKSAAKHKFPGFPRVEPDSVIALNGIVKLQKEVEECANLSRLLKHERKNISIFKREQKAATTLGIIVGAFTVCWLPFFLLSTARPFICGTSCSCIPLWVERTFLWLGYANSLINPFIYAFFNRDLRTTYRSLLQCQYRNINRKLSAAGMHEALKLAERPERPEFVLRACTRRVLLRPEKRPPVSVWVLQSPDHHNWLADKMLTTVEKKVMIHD

These results are taken from US20230348358A1, “Serotonin Receptor Modulators” (Northeastern University, priority 2020, published 2023).

The target of one test is 5HT1A (Homo sapiens, UniProt P08908). Details: host or cells: HEK293, transient. Particulars: cited from earlier work.
The target of the next test is 5HT7 (Homo sapiens, UniProt P34969). The experiment in a line: Affinity (Ki) at 5HT7, HEK293 cells stably expressing 5HT7.

Where two headings read alike, the source gives them in different places.

`CCCN(CCC)[C@@H]1CCc2cccc(O)c2C1` [Compound 8-OH-DPAT, (R)-8-hydroxy-2-(n-di-propylamino)tetralin]: on 5HT1A, the “Function at 5HT1A (literature)” value is “high-affinity full-efficacy 5HT1A agonist”.

Regarding `O=C1CC2(CCCC2)CC(=O)N1CCCCN1CCN(c2ncccn2)CC1` [Buspirone, reference compound], the Ki at 5HT7 and on 5HT7 (read-out: Affinity Ki ± SEM at 5HT7) was greater than 1000 nM in each case.
